Key:
[1] = target: ubiquitin activating enzyme (E1), rabbit (Boston Biochem cat. # E-302) (rabbit) (UniProt Q29504); assay: cell-based or functional assay
[2] = target: UbCH7 (E2), human recombinant (Boston Biochem cat. # E2-640) (human) (UniProt P68036); assay: cell-based or functional assay

Sequences of proteins named here, by UniProt entry; tags and fusion partners are left off. Residues count along the entry.
UniProt Q29504, 2-1058 limits assumed: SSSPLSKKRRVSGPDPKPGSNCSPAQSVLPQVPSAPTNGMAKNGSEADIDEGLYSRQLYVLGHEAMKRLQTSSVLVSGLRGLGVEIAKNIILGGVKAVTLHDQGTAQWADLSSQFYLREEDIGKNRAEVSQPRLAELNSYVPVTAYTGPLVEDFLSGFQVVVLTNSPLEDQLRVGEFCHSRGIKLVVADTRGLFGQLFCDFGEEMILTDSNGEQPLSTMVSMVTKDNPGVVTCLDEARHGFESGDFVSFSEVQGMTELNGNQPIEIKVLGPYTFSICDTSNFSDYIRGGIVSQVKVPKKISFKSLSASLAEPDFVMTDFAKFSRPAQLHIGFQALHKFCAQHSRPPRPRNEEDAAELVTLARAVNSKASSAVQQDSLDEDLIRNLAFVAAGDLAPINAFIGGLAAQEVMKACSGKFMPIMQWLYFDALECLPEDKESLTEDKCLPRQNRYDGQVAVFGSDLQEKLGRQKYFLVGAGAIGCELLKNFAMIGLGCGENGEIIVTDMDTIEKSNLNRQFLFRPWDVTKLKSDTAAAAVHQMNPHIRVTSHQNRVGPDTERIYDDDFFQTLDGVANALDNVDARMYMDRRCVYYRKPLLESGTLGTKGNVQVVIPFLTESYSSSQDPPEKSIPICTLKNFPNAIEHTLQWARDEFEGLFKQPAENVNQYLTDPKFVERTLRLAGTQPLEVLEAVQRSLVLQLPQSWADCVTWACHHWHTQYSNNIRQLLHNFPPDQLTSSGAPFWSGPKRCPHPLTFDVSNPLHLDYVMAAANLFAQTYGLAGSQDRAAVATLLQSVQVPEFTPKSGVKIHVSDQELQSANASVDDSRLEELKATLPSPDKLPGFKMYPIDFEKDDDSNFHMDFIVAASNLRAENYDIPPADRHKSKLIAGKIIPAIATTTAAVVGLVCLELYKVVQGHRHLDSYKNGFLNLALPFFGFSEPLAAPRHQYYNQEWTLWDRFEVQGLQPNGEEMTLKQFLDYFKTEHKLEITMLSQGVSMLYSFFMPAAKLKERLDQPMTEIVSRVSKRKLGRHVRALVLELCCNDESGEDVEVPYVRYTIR
UniProt P68036, whole entry: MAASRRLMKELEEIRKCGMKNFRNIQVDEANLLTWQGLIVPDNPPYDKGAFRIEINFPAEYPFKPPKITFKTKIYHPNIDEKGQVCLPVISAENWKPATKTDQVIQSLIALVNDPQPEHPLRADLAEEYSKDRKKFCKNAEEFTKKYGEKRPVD

## His6-Biotin-N-terminal Ubiquitin, human recombinant (Boston Biochem cat. # U-560) (from UniProt P0CG48 1-76)
[1]
  Bio-Ub concentration below which no Ub-adducts were seen (FIG. 7, lanes 8-10): < 21 nM
  efficiency of thioester intermediate formation compared with tag 1: 265 fold
  lowest ubiquitin concentration at which ubiquitin activation (thioester intermediate) was detectable: 64 nM
[2]
  Bio-Ub concentration below which no Ub-adducts were seen (FIG. 7, lanes 8-10): < 21 nM
